Laboratory results taken from PubChem BioAssay AID371 (SRMLSC, 2006).
The list shows a part of the results, in another mix than the full data. The source made the active and inactive calls.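 How the source made its calls: active means mean growth inhibition over the two runs of 50% or more; inactive means mean growth inhibition under 50%.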

assay: A549 NSCLC cell proliferation inhibitors – ATP luminescence, human non-small cell lung line, primary screen (AID 371); settings: at 10 µM, active compounds read high;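 further: compound exposure lasted 72 h before the ATP read; 0% = untreated cell signal and 100% = no luminescence left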

Compound	growth inhibition
Cc1cccc(OCC(=O)OC2CN3CCC2CC3)c1 (configuration not stated)	inactive: 4.48%
Cc1ccc(OCC(=O)OC2CN3CCC2CC3)cc1 (configuration not stated)	inactive: 3.47%
